## Apparent affinities of Ab-14 variants for a coronavirus HR2 peptide

All variants were tested on one target, the spike HR2 peptide PDVDLGDISGINAS (SARS-CoV-2).

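The parent was found by panning a naive human phage display library on the peptide. Library AAYL49 holds single substitutions and randomly drawn double and triple substitutions in the CDRs. In AlphaSeq, yeast of one mating type display the scFv and yeast of the other type display the target. After mating in shaken culture at 30 °C for 16 h, diploids were selected and their barcode pairs sequenced. Read counts were normalised to the haploid input and turned into Kd by a linear fit to BCL2-family pairs of known affinity, for each replicate. Each pool was mated in three replicate cultures.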

Parent: Ab-14, a human scFv built as VH, a (GGGGS)3 linker, VL. Only the CDRs of the heavy chain vary.
VH: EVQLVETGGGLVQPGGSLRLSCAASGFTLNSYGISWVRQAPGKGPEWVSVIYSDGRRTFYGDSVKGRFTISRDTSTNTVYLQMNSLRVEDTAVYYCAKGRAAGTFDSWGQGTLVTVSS
VL: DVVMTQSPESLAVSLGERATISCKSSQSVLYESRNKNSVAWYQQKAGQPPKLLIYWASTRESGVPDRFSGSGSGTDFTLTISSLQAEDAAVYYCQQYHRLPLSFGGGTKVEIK

Each variant is given by its three heavy chain CDRs, as the data file delimits them; those of the parent are GFTLNSYGIS, VIYSDGRRTFYGDSVK, GRAAGTFDS. Affinities are written as log10 Kd with Kd in nM; a lower number is a better binder. Replicates are averaged; those with no signal do not enter the mean. Where no diploid with the target was found in that replicate, the entry reads "nd": below detection, most likely a poor binder, though not proof of it. Background: pairings of library AAYL49 with three empty control strains gave a value in 15% of cases (median 4.06, 5th percentile 2.83). Values in that range, when seen in few replicates, are hard to tell from nonspecific mating. Also given: how often the same scFv was detected with the empty control strains, with their mean in brackets.

| # | CDR-H1 | CDR-H2 | CDR-H3 | log10 Kd, replicates | log10 Kd (nM), mean | signal with controls |
|---|---|---|---|---|---|---|
| 1 | GFTLVSYGIS | VIYSDGRRTFYVDSVK | GRAAGTFDI | 2.83 / 2.54 / 2.66 | 2.68 | 2/9 (4.29) |
| 2 | GFTLNSYGIS | VIYSDGRRTFIWDSVK | GRAAGTFDS | nd / nd / nd | nd | 1/9 (3.73) |
| 3 | GFTLNSYGIS | VISSKGRRTFYGDSVK | GRAACTFDS | nd / 4.15 / 3.66 | 3.91 | 2/9 (3.96) |
| 4 | GFTLNSYGIS | VIYSDGRFTFYGDSVK | GIAAGTRDS | nd / 3.50 / nd | 3.50 | 0/9 |
| 5 | GFTLNSYGIS | VIYTDGRRTFYGDSVK | GYAAGTFDS | nd / 2.77 / 3.79 | 3.28 | 3/9 (2.57) |
| 6 | GFTLNSYGIS | VIYSDGRRTKYGDSVK | GRAAGTFDS | 3.12 / 2.42 / 3.00 | 2.85 | 3/9 (3.53) |
| 7 | GFTLNSYNIH | VIYSDGRRTFYGDSVK | GRAAGTFDN | 6.20 / 4.11 / nd | 5.16 | 4/9 (4.04) |
| 8 | GITLNSYGIS | VIYSDGRRTFYGDSVK | GRAAVTCDS | nd / nd / 4.91 | 4.91 | 0/9 |
| 9 | IFTLNSYGIQ | VVYSDGRRTFYGDSVK | GRAAGTFDS | 4.18 / 4.36 / nd | 4.27 | 2/9 (4.50) |
| 10 | GFTLNSYGIS | VIYSDMRRTFYGDSVK | GRHAGTFDS | nd / nd / nd | nd | 0/9 |
| 11 | YFTLNSYGIS | VIYSDGRRTFYGDSNK | GIAAGTFDS | nd / 3.16 / nd | 3.16 | 2/9 (3.71) |
| 12 | GNTLNSYGIS | VIYSDGRRTQYGDSVK | GRAAGKFDS | 1.73 / 1.81 / 2.16 | 1.90 | 3/9 (4.32) |
| 13 | GFTLNSNGIS | VIYSDGRRTFPGDSVW | GRAAGTFDS | nd / nd / nd | nd | 0/9 |
| 14 | GFTLDSYGIS | VIYSDGRWRFYGDSVK | GRAAGTFDS | nd / nd / nd | nd | 0/9 |
| 15 | GSTLNSYGIS | VIYSDGRRTFYGDSVK | GQAAGTFDS | 1.49 / 1.58 / 1.89 | 1.65 | 0/9 |
| 16 | GFTLNSYSIS | VIYMDGRRTRYGDSVK | GRAAGTFDS | nd / 2.99 / 3.32 | 3.15 | 2/9 (3.17) |
| 17 | GFTLNSYGIS | VIYSDLRRTFYGDHVK | GCAAGTFDS | nd / nd / nd | nd | 0/9 |
| 18 | GFTQNSYMIS | VIYSDGRRTFYGDSVK | GRAAITFDS | nd / nd / nd | nd | 0/9 |
| 19 | GFTLNSYGIS | VIYSDMRRTFYGGSVK | GRAAGAFDS | nd / 3.69 / nd | 3.69 | 2/9 (4.22) |
| 20 | GFTLNSYGIS | SIYSDIRRTFYGDSVK | GRAAGCFDS | nd / nd / nd | nd | 2/9 (3.42) |
| 21 | GFTLNSYGIS | VIYSDGRRTFYGDSVK | GKAPGTFDV | 1.67 / 1.76 / 1.87 | 1.77 | 5/9 (4.37) |
| 22 | GFTLNSYGIN | HIYSDGRRTAYGDSVK | GRAAGTFDS | nd / nd / nd | nd | 0/9 |
| 23 | GFTLNSYEIS | VIYSNGRRTFYGDSVK | GRAAGTFQS | nd / nd / nd | nd | 0/9 |
| 24 | GWTWNSYGIS | VIYSDGRRTFYGDSVK | GRAAGTMDS | nd / nd / nd | nd | 1/9 (3.50) |
| 25 | GFTLNSYGIS | VYWSDGRRTFYGDSVK | GRACGTFDS | nd / 3.21 / nd | 3.21 | 2/9 (4.76) |
| 26 | GFTLNSYGQS | VIYSDPRRTFYGDSVK | GRQAGTFDS | nd / nd / nd | nd | 0/9 |
| 27 | GFTENSYGIS | VIYSDGRRVFYGDHVK | GRAAGTFDS | nd / nd / 5.84 | 5.84 | 6/9 (4.42) |
| 28 | GFTLNSYGIS | VIYSDGRRVFYGDSYK | GRAAWTFDS | nd / 3.13 / nd | 3.13 | 0/9 |
| 29 | GFTLNSYGIS | VIYSDGFFTFYDDSVK | GRAAGTFDS | 4.98 / 4.01 / 6.19 | 5.06 | 5/9 (4.67) |
| 30 | PFTLNSYGIS | VIYSDGRRTFYGDSCK | YRAAGTFDS | nd / nd / nd | nd | 1/9 (4.29) |
| 31 | GFTLNSYGIS | VIYSDGERTFYGDRVK | GRAAGTEDS | 0.89 / 1.41 / 1.25 | 1.19 | 0/9 |
| 32 | GFTLNSYGIS | VCYSDVRRTFYGDLVK | GRAAGTFDS | nd / nd / nd | nd | 0/9 |
| 33 | GFTLNSYGIN | VSYSDGRRTFYGDSNK | GRAAGTFDS | nd / nd / nd | nd | 3/9 (3.75) |
| 34 | GFTLNSRGIS | VIYSDGRRTDYGDSVK | GRAEGTFDS | nd / nd / nd | nd | 1/9 (2.32) |
| 35 | GFTLMSYGIS | VIYPDGRRTFYGMSVK | GRAAGTFDS | 2.82 / nd / nd | 2.82 | 1/9 (3.88) |
| 36 | GFTLNTYGIS | VIYSDGRRTFYWDSVK | GRAAGTFDE | 2.30 / 2.15 / 2.26 | 2.24 | 2/9 (4.00) |
| 37 | GFTLNSYWIS | VIYSDRRRTFYGDSVK | GRAAGTFDS | nd / nd / nd | nd | 0/9 |
| 38 | GFTLNSYGNS | VQYSDGRRTFYGDSVK | GRAKGTFDS | nd / 3.88 / 5.56 | 4.72 | 4/9 (3.78) |
| 39 | GFTLISYGIS | VMYSDGRRTFAGDSVK | GRAAGTFDS | nd / 4.48 / nd | 4.48 | 2/9 (4.01) |
| 40 | GFTLTSYGIS | VIYSDGRRTFYGDSAK | GRNAGTFDS | 1.27 / 1.17 / 1.20 | 1.21 | 0/9 |
| 41 | GFTLNSYGIS | VIYSRGRRTFYGDSVK | GSAIGTFDS | nd / nd / 3.23 | 3.23 | 0/9 |

The first 6 variants above that were never detected:

{"CDR-H1": "GFTLNSYGIS", "CDR-H2": "VIYSDGRRTFIWDSVK", "CDR-H3": "GRAAGTFDS", "log10 Kd, replicates": "nd / nd / nd", "log10 Kd (nM), mean": "nd", "signal with controls": "1/9 (3.73)"}
{"CDR-H1": "GFTLNSYGIS", "CDR-H2": "VIYSDMRRTFYGDSVK", "CDR-H3": "GRHAGTFDS", "log10 Kd, replicates": "nd / nd / nd", "log10 Kd (nM), mean": "nd", "signal with controls": "0/9"}
{"CDR-H1": "GFTLNSNGIS", "CDR-H2": "VIYSDGRRTFPGDSVW", "CDR-H3": "GRAAGTFDS", "log10 Kd, replicates": "nd / nd / nd", "log10 Kd (nM), mean": "nd", "signal with controls": "0/9"}
{"CDR-H1": "GFTLDSYGIS", "CDR-H2": "VIYSDGRWRFYGDSVK", "CDR-H3": "GRAAGTFDS", "log10 Kd, replicates": "nd / nd / nd", "log10 Kd (nM), mean": "nd", "signal with controls": "0/9"}
{"CDR-H1": "GFTLNSYGIS", "CDR-H2": "VIYSDLRRTFYGDHVK", "CDR-H3": "GCAAGTFDS", "log10 Kd, replicates": "nd / nd / nd", "log10 Kd (nM), mean": "nd", "signal with controls": "0/9"}
{"CDR-H1": "GFTQNSYMIS", "CDR-H2": "VIYSDGRRTFYGDSVK", "CDR-H3": "GRAAITFDS", "log10 Kd, replicates": "nd / nd / nd", "log10 Kd (nM), mean": "nd", "signal with controls": "0/9"}

Reference: Engelhart et al. 2022, doi:10.1038/s41597-022-01779-4. File: FLAb, binding data.